According to patent US7145032B2, “Therapeutic malonic acid/acetic acid C60 tri-adducts of buckminsterfullerene and methods related thereto” (priority 2002, dated 2006):
Read-outs that look alike come from different tables or passages of the source.

Key:
[1] = Thermal stability in 1:1 acetonitrile:water at 60°; type: physicochemical
Text: The composition was monitored by HPLC, using protocols 2 and 4 (see Table 1).

[2] = Plasma pharmacokinetics and tissue distribution in mice
[3] = Hydration of freeze dried sodium salt; type: physicochemical; conditions: dry weight divided by expected weight for complete neutralization; freeze dried 4 days

Row | Substance | Thermal Stability t1/2 [1] [h] | plasma T1/2 (plasma half-life) [2] | plasma T1/2 (plasma half-life) ([2]; listed as Hexa) [h] | effect on weight (C57B6 mice; C3-treated mice with increased lifespan) | Weights, females (C57B6 mice; at 19 mos, Mean±SD, ctrl 27±1) [g] | Weights, males (C57B6 mice; at 19 mos, Mean±SD, ctrl 35±4) [g] | Hydration of Na salt [3]
1 | e,e,e tris malonic acid C60 [Compound C3] | 1 | about 8 hours | 8.2 | not accompanied by a reduction in weight | 29 ± 1 | 35 ± 6 | 
2 | e,e,e tris acetic acid C60 [Compound C3-lite] |  |  |  |  |  |  | 4.36
